Data reported in paper PMC3913438, “Nucleotide Pyrophosphatase/Phosphodiesterase 1 Exerts a Negative Effect on Starch Accumulation and Growth in Rice Seedlings under High Temperature and CO2 Concentration Conditions” (Plant and Cell Physiology, 2013).

Experiments:
[1] = substrate: O=c1ccn([C@@H]2O[C@H](CO[P@@](=O)(O)O[P@@](=O)(O)O[C@H]3O[C@H](CO)[C@@H](O)[C@H](O)[C@H]3O)[C@@H](O)[C@H]2O)c(=O)[nH]1; experiment: purified protein, by the assay type; parameters: steady-state hydrolysis kinetics of purified recombinant rice NPPs, substrate 0.1-10 mM, 37 °C, optimal pH
From the text: To carry out substrate specificity and kinetic studies of NPP1, NPP2 and NPP6, in this work we produced transgenic rice cells ectopically expressing NPP1, NPP2 and NPP6 and purified the corresponding recombinant proteins as described in the Materials and Methods. Details of the processes for purification of recombinant proteins and quality of the final preparations are shown in Supplementary Table S2 and Supplementary Fig. S1A. […] Purification procedures of NPP1, NPP2 and NPP6 expressed in the transgenic rice cells (UNP1, UNP2 and UNP6, respectively) were essentially identical to those used in the earlier study ([Nanjo et al. 2006]). They are summarized in Supplementary Table S2. Rice callus cells (200 g) derived from the seed embryos of UNP1, UNP2 and UNP6 lines were homogenized in 5 vols. of 10 mM Tris–HCl (pH 8.8) and filtered through four layers of gauze. The homogenates were centrifuged at 20,000 × g for 10 min. The supernatants were then adjusted to acidic pH 5.4 with acetate buffer and centrifuged at 20,000 × g. After re-adjustment to pH 7.4 with 1.5 M Tris–HCl (pH 8.8) and further centrifugation at 20,000 × g, the resulting supernatants were applied to a Con A–Sepharose 4B column (ø 1.0 × 8 cm, Pharmacia) equilibrated with 40 mM Tris–HCl (pH 7.4), 0.5 M NaCl, 1 mM MnCl2 and 1 mM CaCl2, and eluted with 25 ml of 0.5 M α-methyl-D-mannopyranoside in 10 mM Tris–HCl (pH 7.4). […]

[2] = substrate: Nc1ncnc2c1ncn2[C@@H]1O[C@H](COP(=O)(O)OS(=O)(=O)O)[C@@H](O)[C@H]1O; experiment: purified protein; details: 37.0 °C
[3] = substrate: Nc1ncnc2c1ncn2[C@@H]1O[C@H](COP(=O)(O)OP(=O)(O)O)[C@@H](O)[C@H]1O; experiment: purified protein; type: biochemical, Oryza sativa; details: 37°C, optimal pH (pH 4.5 with ADP), no metal required

Protein | Vmax [1] [µmol/min/mg] | Km [2] [µM] | Vmax [2] [µmol/min/mg] | kcat/Km [2] [M⁻¹ s⁻¹] | Vmax [3] [µmol/min/mg]
NPP6 (Oryza sativa Japonica Group) (protein, recombinant, purified from transgenic rice cells (UNP6); 74 kDa SDS-PAGE, 224 kDa gel filtration; gene on chromosome 9) GGGGGVWAFSSSSSSSSYSRIGEQPLSLIGIHRATVGIDAAASVQASPRLLGVKGEDTAWVTVDFAAPHASDGDWIGVFSPSNFNASTCPGPSGSDSGPVICSAPIKYQLANYSSDYGKTGKGTLKFQLINQRQDFSFALFTGGLSNPKLIAVSNKIAFANPKAPVYPRLAQGKSWNEMTVTWTSGYDIKEAYPFVEWGMKWSPPTRTAAGTVTFDRESLCGEPARTVGWRDPGFIHTAFLTDLWPNKEYYYKIGHMLPDGKIVWGKFYSFKAPPFPGQKSLQRVVIFGDMGKAERDGSNEYSNYQPGSLNTTDTLIKDLDNIDIVFHIGDITYANGYISQWDQFTQQVEPITARVPYMIASGNHERDWPNSGSFFNGTDSGGECGVLAETMYYTPTENRANYWYKTDYGMFRFCVADSEHDWREGTEQYAFIESCLATVDRKKQPWLVFIAHRVLGYSSGFFYGAGGAFAEPTARQSLQRLWQRHRVDLAFYGHVHNYERTCPVYDGRCASPERSRYSGAVGGTIHAVVGGGGSHLSNFTAEAPPWSVYREMDYGFVKLTAFNYTSLLYEYRRSSDGEVHDSFTVHREYRDVLACVADSCPPTIPPAT | 93 | 800 | 6 | 93000 | 
NPP2 (Oryza sativa Japonica Group) (protein, recombinant, purified from transgenic rice cells (UNP2); 71 kDa SDS-PAGE, 374 kDa gel filtration; gene on chromosome 12) RGDEQPLSRIAIERATVAAVDSASVKAQPTVLGLKGQSSDWVVVEFSHPKPSNDDWIGVFSPSGFSSEICQPEYYGDLPPYLCTSPIKFQYANFNNADYNRSGKGLLRLQLINQREDFSFALFSGGLSAPKLIAISNKVSFQNPKAPVYPRLAQGKSWNEMTVTWTSGYSIKEAIPFVEWGHKGGNQMLSPAGTLTFSRNSMCGSPARTVGWRDPGYIHTSFLKELWPDSLYTYRLGHRLLDGTHIWSKSYSFRASPYPGQDSVQRVVIFGDMGKAEIDGSDEYGNYEQASLYTTNQLIKELDSIDMVIHIGDLSYANGYLSQWDQFTQQIEPIASTVPYMIGSGNHERDWPGSGSFYGHNDSGGECGVPTQTMFYVPAENRAKLWYSTDYGMFRFCIADTEQDWRPGTEQYKFIEQCLSSVDRSKQPWLIFLAHRVLGYSSASWYEIMMGSYGEPMGRDGLEELWQKYKVDLAVFGHIHSYERTCPIYQNRCVQDGSNLYTGQFNATTHVIVGGGGAMLSPFRATVPYWSFFRDYDFGFSKLTALNHSTLLFEYKKSRDGKVYDHFTISRDYRDIMACSIDNCPRTTLAV |  | 500 | 29 | 68000 | 68
